Only a part is listed here, and it is no random draw. Results filed as inconclusive are left out. The source made the active and inactive calls. Calls follow the shape of the dose curve; as a rule, active = well fitted inhibition curve with a large enough effect; inconclusive = small, poorly fitted or top-dose-only effect; inactive = no such curve, though single readings can be large or run the other way.
Potency is read from the fitted curve at half-maximal effect.

Chains of the proteins cited; added tags and fusions are not shown. Lines headed by an entry give the natural chain unless they say otherwise; changes in a name come on top.
UniProt Q99714: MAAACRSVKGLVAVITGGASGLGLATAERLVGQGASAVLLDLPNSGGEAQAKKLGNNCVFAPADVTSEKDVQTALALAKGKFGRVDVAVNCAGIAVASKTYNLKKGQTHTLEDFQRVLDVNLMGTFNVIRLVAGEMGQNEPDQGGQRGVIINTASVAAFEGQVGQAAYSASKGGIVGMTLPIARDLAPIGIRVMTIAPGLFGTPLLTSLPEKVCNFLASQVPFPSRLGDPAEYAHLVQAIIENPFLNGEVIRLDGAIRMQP

The test deals with 3-hydroxyacyl-CoA dehydrogenase type-2 (Homo sapiens) (UniProt Q99714). Nature of the test: qHTS Assay for Inhibitors of HADH2 (Hydroxyacyl-Coenzyme A Dehydrogenase, Type II). Also: nearly all actives have a fitted effect of over 60% in size. The note with it: recombinant HADH2, NADH fluorescence, beta-hydroxybutyryl-CoA. An excerpt:
Assay Overview: NIH Molecular Libraries Screening Centers Network [MLSCN] NIH Chemical Genomics Center [NCGC] Structural Genomics Consortium [SGC] Grant Number: None HADH2: Hydroxyacyl-Coenzyme A dehydrogenase, type II, was supplied by researchers at the Structural Genomics Consortium, Oxford University lab (PI Udo Oppermann). The mitochondrial enzyme 17-hydroxysteroid dehydrogenase type 10 (HSD17-10) previously classified as type II hydroxyacyl-CoA dehydrogenase (HADH2) catalyzes the NAD+ dependent oxidation of a variety of substrates including acyl-CoAs, androgens and neurosteroids as well as bile acids(Shafqat N, Marschall HU, Filling C, et al. Biochemical Journal. 2003;376(Pt 1):49-60). […] An increase in the fluorescence intensity due to conversion of NAD+ to NADH was used to measure the enzyme activity.
Assay Protocol: Buffer: 100 mM Tris-HCl pH 9.0, containing 0.01 % Tween-20. […] The plates were immediately transferred to and read every 30 seconds for 4 min on ViewLux High-throughput CCD imager (Perkin-Elmer) using 360 nm excitation and 450 nm emission fluorescence protocol. The fluorescence intensity difference between the last and the first time points was used to compute reaction progress.
Take `COC(=O)c1cccc(C(=O)Nc2cnc3ccccc3c2)n1`: the Potency is active: 31.6 µM.

(Values after PubChem BioAssay AID886 (National Center for Advancing Translational Sciences (NCATS), 2007).)
